# Structures can show the parent of a compound that is named as a salt.
# Amino acid sequences for entries named in this document (tags omitted). Residues count along the entry.
# UniProt P37231, 238-503 limits assumed: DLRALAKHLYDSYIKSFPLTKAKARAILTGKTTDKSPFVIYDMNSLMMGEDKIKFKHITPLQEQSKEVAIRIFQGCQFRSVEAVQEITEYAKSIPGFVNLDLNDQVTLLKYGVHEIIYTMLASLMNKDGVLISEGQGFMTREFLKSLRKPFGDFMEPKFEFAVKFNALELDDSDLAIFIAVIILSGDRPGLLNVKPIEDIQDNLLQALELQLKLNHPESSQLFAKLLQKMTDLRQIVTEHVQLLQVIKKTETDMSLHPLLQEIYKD
# Molecular target: human PPARγ receptor (Homo sapiens, UniProt P37231)
# Assay: PPARγ transactivation luciferase reporter gene assay in HEK-293 cells
# Conditions: positive control
smiles,measurement,value
"CN(CCOc1ccc(CC2SC(=O)NC2=O)cc1)c1ccccn1 (stereo not shown) [Rosiglitazone, rosiglitazone maleate, reference compound]",PPARγ transactivation,marked activation

# — PMC3806773, “Discovery of P1736, a Novel Antidiabetic Compound That Improves Peripheral Insulin Sensitivity in Mice Models” (PLoS ONE, 2013)
